# From ChEMBL document CHEMBL3600335 (Bioorg Med Chem Lett, 2015)
# Activity calls are given as the source filed them. The calls are words filed in the database; no cut-off is given here.
# How the values were obtained:
# [1] = target: Human immunodeficiency virus type 1 reverse transcriptase (Human immunodeficiency virus 1) (UniProt Q72547); experiment: Inhibition of HIV-1 reverse transcriptase at 37.5 to 150 ug/ml by Roche colorimetric assay
# [2] = target: Human immunodeficiency virus type 1 reverse transcriptase (Human immunodeficiency virus 1) (UniProt Q72547); experiment: Inhibition of HIV-1 reverse transcriptase in human Jurkat cells assessed as ratio MTT activity to reverse transcriptase activity with compound/reverse transcriptase activity with DMSO at 1 ug/ml after 72 hrs; type: cell-based
# Method in brief: (§1)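 Jurkat cells infected with HIV-1 in the presence of compound, with DMSO as solvent control. Viability was read by MTT assay and HIV replication by reverse transcriptase activity assay. The value is the ratio MTT activity/(RT activity with compound/RT activity in DMSO).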
# [3] = target: Human immunodeficiency virus type 1 reverse transcriptase (Human immunodeficiency virus 1) (UniProt Q72547); experiment: Inhibition of HIV-1 reverse transcriptase in human Jurkat cells assessed as ratio MTT activity to reverse transcriptase activity with compound/reverse transcriptase activity with DMSO at 5 ug/ml after 72 hrs; type: cell-based; method in brief: as §1
Structure (SMILES),inhibition [1],Ratio [2],Ratio [3]
C=C(C)[C@@H]1CC[C@]2(C(=O)N[C@H](C)C(=O)[O-])CC[C@]3(C)[C@H](CC[C@@H]4[C@@]5(C)CC[C@H](O)C(C)(C)[C@@H]5CC[C@]43C)[C@@H]12.CCCCCCCCCCCC[N+](C)(C)Cc1ccccc1,inactive,,
C=C(C)[C@@H]1CC[C@]2(C(=O)N[C@H](C)C(=O)O)CC[C@]3(C)[C@H](CC[C@@H]4[C@@]5(C)CC[C@H](O)C(C)(C)[C@@H]5CC[C@]43C)[C@@H]12,inactive,0.319,0.885
C=C(C)[C@@H]1CC[C@]2(C(=O)[O-])CC[C@]3(C)[C@H](CC[C@@H]4[C@@]5(C)CC[C@H](O)C(C)(C)[C@@H]5CC[C@]43C)[C@@H]12.CCCCCCCCCCCC[N+](C)(C)Cc1ccccc1,inactive,0.121,0.474
